Measurements from patent EP3970494A1 (priority 2020, dated 2022).

Assays:
Phakopsora pachyrhizi [1] = test: Protective control of soybean rust on soybeans, inoculation six days after treatment (PHAKPA P6); format: in vivo; conditions: soybean seedlings inoculated six days after treatment, strain with F129L in cytochrome b, % diseased leaf area, untreated controls usually higher than 85 %; for PHAKPA Disease level (%) P6 at 4 ppm: 4 ppm spray; for PHAKPA Disease level (%) P6 at 16 ppm: 16 ppm spray
Phakopsora pachyrhizi [2] = test: Protective control of soybean rust on soybeans, inoculation 2 days after treatment (PHAKPA P2); format: in vivo; conditions: soybean seedlings inoculated 2 days after treatment, strain with F129L in cytochrome b, % diseased leaf area, untreated controls usually higher than 85 %; for PHAKPA Disease level (%) P2 at 4 ppm: 4 ppm spray; for PHAKPA Disease level (%) P2 at 16 ppm: 16 ppm spray

SMILES | PHAKPA Disease level (%) P6 at 4 ppm (Phakopsora pachyrhizi [1]) [%] | PHAKPA Disease level (%) P6 at 16 ppm (Phakopsora pachyrhizi [1]) [%] | PHAKPA Disease level (%) P2 at 4 ppm (Phakopsora pachyrhizi [2]) [%] | PHAKPA Disease level (%) P2 at 16 ppm (Phakopsora pachyrhizi [2]) [%]
CNC(=O)/C(=N/OC)c1cccc(C)c1CO/N=C(\C)c1cc(C(F)(F)F)cc(C#N)n1 [Example 86] | 97 | 77 | 100 | 90
CO/N=C(/C(=O)OC)c1cccc(C)c1CO/N=C(\C)c1cnc(Cl)c(Cl)c1 [Example 87] | 100 | 97 | 100 | 100
CNC(=O)/C(=N/OC)c1cccc(C)c1CO/N=C(\C)c1cnc(Cl)c(Cl)c1 [Example 88] | 93 | 28 | 73 | 20
CNC(=O)/C(=N/OC)c1cccc(C)c1CO/N=C(\C)c1cncc(C(F)(F)F)n1 [Example 89, (2E)-2-Methoxyimino-N-methyl-2-[3-methyl-2-[[(E)-1-[6-(trifluoromethyl)pyrazin-2-yl]ethylideneamino]oxymethyl]phenyl]acetamide] | 100 | 100 | 100 | 83
CNC(=O)/C(=N/OC)c1cccc(C)c1CO/N=C(\C)c1cc(N2CC(F)(F)C2)ccn1 [Example 90] | 70 | 67 | 95 | 95
CNC(=O)/C(=N/OC)c1cccc(C)c1CO/N=C(\C)c1ccc(Cl)nn1 [Example 92] | 53 | 53 | 92 | 90
CNC(=O)/C(=N/OC)c1cccc(C)c1CO/N=C(\C)c1cccc(SC)n1 [Example 93] | 80 | 37 | 57 | 16
CO/N=C(/C(=O)OC)c1cccc(C)c1CO/N=C(\C)c1ccnc(SC)c1 [Example 94] | 87 | 80 | 100 | 97
CNC(=O)/C(=N/OC)c1cccc(C)c1CO/N=C(\C)c1nc(C(F)(F)F)cs1 [Example 95] | 87 | 35 | 80 | 53
CO/N=C(/C(=O)OC)c1cccc(C)c1CO/N=C(\C)c1cnc(C(F)(F)F)cn1 [Example 96, Methyl (2E)-2-methoxyimino-2-[3-methyl-2-[[(E)-1-[5-(trifluoromethyl)pyrazin-2-yl]ethylideneamino]oxymethyl]phenyl]acetate] | 77 | 10 | 73 | 7
CNC(=O)/C(=N/OC)c1cccc(C)c1CO/N=C(\C)c1cnc(C(F)(F)F)cn1 [Example 97, (2E)-2-methoxyimino-N-methyl-2-[3-methyl-2-[[(E)-1-[5-(trifluoromethyl)pyrazin-2-yl]ethylideneamino]oxymethyl]phenyl]acetamide] | 14 | 1 | 3 | 0
CNC(=O)/C(=N/OC)c1cccc(C)c1CO/N=C(\C)c1cc(C(F)(F)F)c(C#N)c(Cl)n1 [Example 98] | 57 | 28 | 57 | 32
CNC(=O)/C(=N/OC)c1cccc(C)c1CO/N=C(\C)c1cc(C(F)(F)F)c(C#N)cn1 [Example 99] | 9 | 2 | 23 | 1
CO/N=C(/C(=O)OC)c1cccc(C)c1CO/N=C(\C)c1cnc(C)c(F)c1 [Example 100] | 100 | 97 | 100 | 100
CO/N=C(/C(=O)OC)c1cccc(C)c1CO/N=C(\C)c1cccc(F)n1 [Example 106] | 93 | 77 | 93 | 70
CNC(=O)/C(=N/OC)c1cccc(C)c1CO/N=C(\C)c1cccc(F)n1 [Example 107] | 53 | 6 | 18 | 0

SMILES | PHAKPA Disease level (%) P6 at 4 ppm (Phakopsora pachyrhizi [1]) [%] | PHAKPA Disease level (%) P6 at 16 ppm (Phakopsora pachyrhizi [1]) [%] | PHAKPA Disease level (%) P2 at 4 ppm (Phakopsora pachyrhizi [2]) [%] | PHAKPA Disease level (%) P2 at 16 ppm (Phakopsora pachyrhizi [2]) [%]
CNC(=O)/C(=N/OC)c1cccc(C)c1CO/N=C(\C)c1ncnc(Cl)c1F [Example 108] | 97 | 87 | 73 | 53
CO/N=C(/C(=O)OC)c1cccc(C)c1CO/N=C(/c1nccs1)C1CC1 [Example 109] | 87 | 90 | 100 | 100
CNC(=O)/C(=N/OC)c1cccc(C)c1CO/N=C(/c1nccs1)C1CC1 [Example 110] | 67 | 25 | 77 | 6
CO/N=C(/C(=O)OC)c1cccc(C)c1CO/N=C(\C)c1ccc(C#CC2CC2)cn1 [Example 111] | 67 | 17 | 67 | 20
CNC(=O)/C(=N/OC)c1cccc(C)c1CO/N=C(\C)c1ccc(C#CC2CC2)cn1 [Example 112] | 40 | 3 | 18 | 2
CO/N=C(/C(=O)OC)c1cccc(C)c1CO/N=C(\C)c1cc(C(F)(F)F)ncn1 [Example 113, Methyl (2E)-2-methoxyimino-2-[3-methyl-2-[[(E)-1-[6-(trifluoromethyl)pyrimidin-4-yl]ethylideneamino]oxymethyl]phenyl]acetate] | 20 | 4 | 28 | 7
CNC(=O)/C(=N/OC)c1cccc(C)c1CO/N=C(\C)c1csc(C(F)(F)F)n1 [Example 115] | 67 | 25 | 77 | 6
C=Cc1cc(C(F)(F)F)cc(/C(C)=N/OCc2c(C)cccc2/C(=N\OC)C(=O)OC)n1 [Example 116, Methyl (2E)-2-methoxvimino-2-[3-methyl-2-[[(E)-1-[4-(trifluoromethyl)-6-vinyl-2-pyridyl]ethylideneamino]oxymethyl]phenyl]acetate] | 70 | 28 | 83 | 28
CO/N=C(/C(=O)OC)c1cccc(C)c1CO/N=C(\C)c1cc(C(F)(F)F)nn1C [Example 117, Methyl (2E)-2-methoxyimino-2-[3-methyl-2-[[(E)-1-[2-methyl-5-(trifluoromethyl)pyrazol-3-yl]ethylideneamino]oxymethyl]phenyl]acetate] | 100 | 83 | 100 | 57
CNC(=O)/C(=N/OC)c1cccc(C)c1CO/N=C(\C)c1cc(C(F)(F)F)nc(OC)n1 [Example 120] | 25 | 6 | 12 | 5
CO/N=C(/C(=O)OC)c1cccc(C)c1CO/N=C(\C)c1ncc(C(F)(F)F)s1 [Example 123, Methyl (2E)-2-methoxyimino-2-[3-methyl-2-[[(E)-1-[5-(trifluoromethyl)thiazol-2-yl]-ethylideneamino]oxymethyl]phenyl]acetate] | 50 | 14 | 60 | 23
CO/N=C(/C(=O)OC)c1cccc(C)c1CO/N=C(\C)c1cscn1 [Example 126] | 100 | 93 | 100 | 87
CNC(=O)/C(=N/OC)c1cccc(C)c1CO/N=C(\C)c1cscn1 [Example 127] | 90 | 73 | 97 | 33
CO/N=C(/C(=O)OC)c1cccc(C)c1CO/N=C(\C)c1nccs1 [Example 128] | 100 | 93 | 100 | 100
CO/N=C(/C(=O)OC)c1cccc(C)c1CO/N=C(\C)c1ccccn1 [Example 129] | 78 | 78 | 90 | 76
CO/N=C(/C(=O)OC)c1cccc(C)c1CO/N=C(\C)c1ccncc1 [Example 130] | 78 | 70 | 90 | 87
